In patent publication US7033773B1, “Screening assays for G protein coupled receptor agonists and antagonists” (The General Hospital Corporation, priority 1997, dated 2006):

Assays:
rat PTHR = molecular target: T1, rat PTHR (Rattus norvegicus, UniProt P25961); assay: Cellular cAMP accumulation in LLC-PK1 cells expressing rat PTHR; format: cell-based; conditions: for cAMP Accumulation (maximal response): 1000 nM, mean±SD
T1 construct: expressed in transfected cells; host or cells: LLC-PK1 porcine renal epithelial cells (EW5; also EW29, AR-C38, AR-B44)
T1 sequence (P25961 27-591): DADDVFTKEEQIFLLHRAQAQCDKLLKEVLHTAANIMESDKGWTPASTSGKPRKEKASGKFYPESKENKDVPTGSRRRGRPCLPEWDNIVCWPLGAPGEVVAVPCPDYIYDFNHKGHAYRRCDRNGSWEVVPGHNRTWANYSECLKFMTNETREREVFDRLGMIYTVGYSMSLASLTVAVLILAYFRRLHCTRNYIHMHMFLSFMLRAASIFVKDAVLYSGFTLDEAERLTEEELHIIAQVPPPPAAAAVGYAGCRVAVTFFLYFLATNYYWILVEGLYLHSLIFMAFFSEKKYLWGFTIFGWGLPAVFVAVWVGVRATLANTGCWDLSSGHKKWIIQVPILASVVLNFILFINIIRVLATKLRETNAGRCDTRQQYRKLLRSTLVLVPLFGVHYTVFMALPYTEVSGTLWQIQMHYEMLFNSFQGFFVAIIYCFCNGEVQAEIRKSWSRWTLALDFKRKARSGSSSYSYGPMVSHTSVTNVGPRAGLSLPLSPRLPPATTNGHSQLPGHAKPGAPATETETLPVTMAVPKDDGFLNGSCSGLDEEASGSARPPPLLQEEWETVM
Procedure: FIG. 10. Stimulation of cyclic AMP accumulation by hPTH(1-31) and hPTH(1-34) in LLC-PK1 cells that express rat PTHRs. Cyclic AMP accumulation was measured in response to hPTH(1-34) (●) or hPTH(1-31) (Δ) in EW5 cells that expressed 320,000 rat PTHRs per cell. Results are expressed as fold basal.
Cells were seeded into 24-well plates at a density of 2.5×10^5 cells/well and cultured for a further 2 days before study. The cells were rinsed once with 0.5 ml of ice-cold Buffer B [10 mM HEPES (pH 7.4), 130 mM NaCl, 5 mM KCl, 1.2 mM CaCl2, 1 mM MgCl2, 1.2 mM Na2HPO^4 5 mM glucose, and 0.1% heat-inactivated BSA] supplemented with 1 mM isobtylmethylxanthine (IBMX), and placed on ice. Treatments were added to each well in 0.25 ml of IBMX-supplemented Buffer B, after which the plates were incubated at 37° C. for 15 min. The buffer then was rapidly aspirated, the plates were rapidly transferred onto liquid nitrogen, and the frozen monolayers were subsequently thawed directly into 0.5 ml of 50 mM HCl. The extracted cAMP then was measured using a commercial RIA kit (Dupont-New England Nuclear, Boston, Mass.). Results were expressed as fold-basal, where basal levels ranged between 38 and 128 pmol/mg protein/15 min. The basal level of cAMP accumulation in native LLC-PK1 cells was not consistently altered in subclones that expressed wild type PTH/PTHrp receptors.

human PTH/PTHrP receptor = molecular target: T2, human PTH/PTHrP receptor (Homo sapiens, UniProt Q03431); assay: Cellular phosphate uptake in LLC-PK1 cells expressing human PTHR; format: cell-based; design: transfected with a full-length human PTH/PTHrP receptor cDNA; expressed in transfected cells
T2 sequence (Q03431 27-593): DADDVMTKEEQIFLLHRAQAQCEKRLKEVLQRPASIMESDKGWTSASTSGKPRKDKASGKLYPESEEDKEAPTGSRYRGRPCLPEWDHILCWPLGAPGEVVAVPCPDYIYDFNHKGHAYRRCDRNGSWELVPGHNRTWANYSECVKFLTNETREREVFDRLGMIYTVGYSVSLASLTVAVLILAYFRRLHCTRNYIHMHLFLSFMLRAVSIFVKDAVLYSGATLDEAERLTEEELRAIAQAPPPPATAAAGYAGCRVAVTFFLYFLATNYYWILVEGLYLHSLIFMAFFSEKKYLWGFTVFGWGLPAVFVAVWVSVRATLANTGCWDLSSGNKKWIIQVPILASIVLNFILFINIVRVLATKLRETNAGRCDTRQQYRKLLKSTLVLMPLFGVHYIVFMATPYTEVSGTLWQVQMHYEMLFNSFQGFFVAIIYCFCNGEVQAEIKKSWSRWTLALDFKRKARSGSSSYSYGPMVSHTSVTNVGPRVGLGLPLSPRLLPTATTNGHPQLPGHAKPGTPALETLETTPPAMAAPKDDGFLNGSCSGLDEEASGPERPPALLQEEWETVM
Procedure: FIG. 8. Regulation of phosphate uptake by PTH in HKRK B7 and HKRK B28 cells. […] Results are expressed as percentage of basal, and each bar represents the mean±SEM of a representative experiment performed in triplicate. Similar results were obtained from at least 5 individual experiments. Cells were seeded into 24-well plates at a density of 2.5×10^5 cells/well and cultured for a further 2 days before study. Twenty four hours before assay, cells were refed with 0.5 ml of DMEM containing 0.1% BSA. The next day, cells were refed with serum-free medium (DMEM+0.1% BSA) containing drugs or peptides, and the incubations were continued at 37° C. under 5% CO2 in air for another 6 hr. Cells then were washed with prewarmed Buffer B without BSA and Na2HPO4 and then were incubated at 37° C. for 5 min in 0.25 ml of the same buffer containing [^32P]orthophosphate (4 uCi/ml) and 0.1 mM Na2HPO4. Phosphate uptake was arrested by adding 1 ml of ice-cold sodium-free “stop buffer” [10 mM HEPES (pH 7.4), 140 mM choline chloride, and 5 mM sodium arsenate], followed by two further washes with same buffer. The drained cell layer then was solubilized in 0.5 ml of Lysis Buffer, and cell-associated radioactivity was determined by Cerenkov counting, as previously described (Guo, J., et al., Endocrinology 136:3884-3891 (1995)).

## CC[C@H](C)[C@H](NC(=O)[C@H](CCC(=O)O)NC(=O)[C@H](CO)NC(=O)[C@@H](NC(=O)[C@@H](N)CO)C(C)C)C(=O)N[C@@H](CCC(N)=O)C(=O)N[C@@H](CC(C)C)C(=O)N[C@@H](CCSC)C(=O)N[C@@H](Cc1c[nH]cn1)C(=O)N[C@@H](CC(N)=O)C(=O)N[C@@H](CC(C)C)C(=O)NCC(=O)N[C@@H](CCCCN)C(=O)N[C@@H](Cc1c[nH]cn1)C(=O)N[C@@H](CC(C)C)C(=O)N[C@@H](CC(N)=O)C(=O)N[C@@H](CO)C(=O)N[C@@H](CCSC)C(=O)N[C@@H](CCC(=O)O)C(=O)N[C@@H](CCCNC(=N)N)C(=O)N[C@H](C(=O)N[C@@H](CCC(=O)O)C(=O)N[C@@H](Cc1c[nH]c2ccccc12)C(=O)N[C@@H](CC(C)C)C(=O)N[C@@H](CCCNC(=N)N)C(=O)N[C@@H](CCCCN)C(=O)N[C@@H](CCCCN)C(=O)N[C@@H](CC(C)C)C(=O)N[C@@H](CCC(N)=O)C(=O)N[C@@H](CC(=O)O)C(=O)N[C@H](C(=O)N[C@@H](Cc1c[nH]cn1)C(=O)N[C@@H](CC(N)=O)C(=O)N[C@@H](Cc1ccc(O)cc1)C(N)=O)C(C)C)C(C)C [hPTH(1-34), [Tyr^34]hPTH(1-34)]
Rat PTHR; EW5 cells
  activation of AC (in words): activated AC equivalently
Rat PTHR; EW5 cells (rat receptor)
  cAMP Accumulation (maximal response): 130 ± 6 fold basal
Rat PTHR; EW29 cells (rat receptor)
  cAMP Accumulation (maximal response): 148 ± 16 fold basal
Human PTH/PTHrP receptor; HKRK B7 and HKRK B28 cells
  phosphate uptake (in words): stimulated significantly
Human PTH/PTHrP receptor; HKRK B28 and HKRK B7 cells, peptides 1000 nM, 6 hr
  maximal activation of phosphate uptake (in words): comparable maximal activation of phosphate uptake
Human PTH/PTHrP receptor; cAMP-resistant AB45 cells, data not shown
  stimulation of phosphate uptake: over 2 fold
